Reference: paper PMC11025159 (Journal of Translational Medicine, 2024)

System: phosphorylation of JAK1, JAK3 and STAT3
Test: Western blotting of JAK/STAT phosphorylation in A549 cells
Type: cell-based, human
Experimental: For western blotting, A549 cells were seeded at a density of 0.2 × 10^6 cells/well in 6-well plates. At 24 h, cells were treated with various concentrations of small molecules and grown with 10% FBS for 48 h. Whole-cell lysates were prepared in 1× RIPA buffer (Sigma) with added sodium orthovanadate (1 mM), protease cocktail (Roche), NaF (1 mM), PMSF (1 mM) and EDTA (0.5 M). Protein estimation was done using Bradford reagent (Bio-Rad). The samples were boiled with sample buffer containing 1% β-mercaptoethanol, 6% glycerol, 2% SDS, 22 mM Tris–HCl pH 6.8, and bromophenol blue. Whole-cell lysates corresponding to 70-100 µg of protein were loaded. The samples were analysed by SDS-PAGE with a 10% separating gel. After running the gel, the proteins were transferred to PVDF membrane (Millipore) and then blocked for 1 h in a solution of 5% BSA (Sigma), 0.1% Tween 20 (Hi-Media), 150 mM NaCl and 20 mM Tris–HCl pH-7.4. The membrane was probed with specific antibodies for pJAK-1 (1:1000), p-STAT-3 (CST) (1:1000), total JAK-1 (1:1000), pJAK-3 Z(1:1000), T-JAK-3 (1:1000), total STAT-3(1:1000), GAPDH (1:500), and visualized using ECL (Millipore). GAPDH was used as a loading control. The results shown are representative of western blot data analysis obtained from at least three independent experiments. To induce STAT3 pathway stimulation with IL-6, A549 cells were initially seeded in 6 well-culture plates at a concentration of 1.25 × 10^5 cells/mL and incubated for 24 h. Subsequently, the cells were subjected to serum-free medium for a minimum of 12 h to induce starvation. Following this starvation period, the A549 cells were pre-treated with varying concentrations of MJ04 for a duration of 4 h. Following the pre-treatment, the cells were stimulated with 10 ng/mL of IL-6 for 30 min [20–22].

C[C@@H]1CCN(C(=O)CC#N)C[C@@H]1N(C)c1ncnc2[nH]ccc12 [Tofacitinib, tofacitinib citrate, reference compound]
significant decrease: phosphorylation of STAT3 (Tyr705) (dose-dependent) | phosphorylation of JAK1 (increasing concentrations) | phosphorylation of JAK3 (increasing concentrations)

Where a name gives a salt, the structure may show the parent alone.
